Data on four molecules can be found in US9181230B2, “Morpholine compounds and uses thereof” (Hoffmann-La Roche Inc., priority 2013, dated 2015).

Amino acid sequences for entries named in this document (tags omitted).
UniProt Q923Y8, whole entry: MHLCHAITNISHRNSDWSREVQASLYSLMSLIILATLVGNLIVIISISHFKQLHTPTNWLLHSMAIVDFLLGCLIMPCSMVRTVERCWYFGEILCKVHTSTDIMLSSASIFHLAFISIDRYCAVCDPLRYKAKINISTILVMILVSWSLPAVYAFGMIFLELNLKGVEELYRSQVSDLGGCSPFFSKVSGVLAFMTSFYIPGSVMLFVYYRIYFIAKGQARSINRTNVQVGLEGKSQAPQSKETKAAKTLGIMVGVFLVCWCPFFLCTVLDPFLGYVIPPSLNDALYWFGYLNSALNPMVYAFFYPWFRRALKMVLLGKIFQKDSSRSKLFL
UniProt Q923Y9, whole entry: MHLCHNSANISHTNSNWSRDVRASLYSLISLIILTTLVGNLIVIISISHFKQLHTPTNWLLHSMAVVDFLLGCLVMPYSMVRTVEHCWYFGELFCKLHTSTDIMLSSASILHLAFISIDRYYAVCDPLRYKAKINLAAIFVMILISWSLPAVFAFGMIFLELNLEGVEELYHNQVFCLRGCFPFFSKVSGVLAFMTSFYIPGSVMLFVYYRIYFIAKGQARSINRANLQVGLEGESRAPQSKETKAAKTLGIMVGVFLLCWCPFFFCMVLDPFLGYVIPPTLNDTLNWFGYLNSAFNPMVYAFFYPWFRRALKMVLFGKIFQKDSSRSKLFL

For one experiment, the target named is mouse TAAR1 (Mus musculus (Mouse), UniProt Q923Y8). In words: Radioligand binding assay on mouse TAAR1. To be noted: mouse TAAR1, membranes of HEK-293 cells, first value of the cell pair mouse/rat. The procedure:
(§1) For the construction of expression plasmids the coding sequences of human, rat and mouse TAAR 1 were amplified from genomic DNA essentially as described by Lindemann et al.. The Expand High Fidelity PCR System (Roche Diagnostics) was used with 1.5 mM Mg^2+ and purified PCR products were cloned into pCR2.1-TOPO cloning vector (Invitrogen) following the instructions of the manufacturer. PCR products were subcloned into the pIRESneo2 vector (BD Clontech, Palo Alto, Calif.), and expression vectors were sequence verified before introduction in cell lines.
(§2) HEK293 cells (ATCC # CRL-1573) were cultured essentially as described by Lindemann et al. (2005). […]
HEK-293 cells stably expressing mouse TAAR1 were maintained at 37° C. and 5% CO2 in DMEM high glucose medium, containing fetal calf serum (10%, heat inactivated for 30 min at 56° C.), penicillin/streptomycin (1%), and 375 μg/ml geneticin (Gibco). […] With each new membrane batch the dissociation constant (Kd) was determined via a saturation curve. […] After addition of 45 μl of Microscint 40 (PerkinElmer) the Unifilter-96 plate was sealed and after 1 hr the ratioactivity counted using a TopCount Microplate Scintillation Counter (Packard Instrument Company).

The next experiment has as its target rat TAAR1 (Rattus norvegicus (Rat), UniProt Q923Y9). Kind of experiment: Radioligand binding assay on rat TAAR1. The note with it: rat TAAR1, membranes of HEK-293 cells, second value of the cell pair mouse/rat. The procedure: as §1, §2
HEK-293 cells stably expressing rat TAAR1 were maintained at 37° C. and 5% CO2 in DMEM high glucose medium, containing fetal calf serum (10%, heat inactivated for 30 min at 56° C.), penicillin/streptomycin (1%), and 375 μg/ml geneticin (Gibco). […] With each new membrane batch the dissociation constant (Kd) was determined via a saturation curve. […] After addition of 45 μl of Microscint 40 (PerkinElmer) the Unifilter-96 plate was sealed and after 1 hr the ratioactivity counted using a TopCount Microplate Scintillation Counter (Packard Instrument Company).

SMILES strings stand for the structures. Where a name gives a salt, the structure may show the parent alone.

For `FC(F)(F)c1cc(-c2nc3ccc([C@H]4CNCCO4)cc3o2)ccn1` [Example 55, (S)-6-(Morpholin-2-yl)-2-(2-(trifluoromethyl)pyridin-4-yl)benzo[d]oxazole hydrochloride], at mouse TAAR1, the Ki turned out to be 0.0644 µM.

In turn, `FC(F)(F)c1cc(-c2nc3ccc([C@@H]4CNCCO4)cc3o2)ccn1` [Example 54, (R)-6-(Morpholin-2-yl)-2-(2-(trifluoromethyl)pyridin-4-yl)benzo[d]oxazole hydrochloride] came in with a Ki at mouse TAAR1 of 0.203 µM.

`Fc1ccc(-c2cc(-c3ccc([C@H]4CNCCO4)cc3)n[nH]2)c(F)c1` [Example 13, (S)-2-(4-(5-(2,4-Difluorophenyl)-1H-pyrazol-3-yl)phenyl)morpholine hydrochloride] had a Ki on rat TAAR1 of 0.0305 µM.

Consider `Fc1ccc(-c2cc(-c3ccc([C@@H]4CNCCO4)cc3)n[nH]2)c(F)c1` [Example 14, (R)-2-(4-(5-(2,4-Difluorophenyl)-1H-pyrazol-3-yl)phenyl)morpholine hydrochloride], for which, at rat TAAR1, the Ki is 0.183 µM.

By Ki is commonly meant the dissociation constant of the complex between target and ligand, obtained from inhibition or displacement.
